Protein sequences, listed by entry. Tags and fused reporters are not part of them.
UniProt P21452, whole entry: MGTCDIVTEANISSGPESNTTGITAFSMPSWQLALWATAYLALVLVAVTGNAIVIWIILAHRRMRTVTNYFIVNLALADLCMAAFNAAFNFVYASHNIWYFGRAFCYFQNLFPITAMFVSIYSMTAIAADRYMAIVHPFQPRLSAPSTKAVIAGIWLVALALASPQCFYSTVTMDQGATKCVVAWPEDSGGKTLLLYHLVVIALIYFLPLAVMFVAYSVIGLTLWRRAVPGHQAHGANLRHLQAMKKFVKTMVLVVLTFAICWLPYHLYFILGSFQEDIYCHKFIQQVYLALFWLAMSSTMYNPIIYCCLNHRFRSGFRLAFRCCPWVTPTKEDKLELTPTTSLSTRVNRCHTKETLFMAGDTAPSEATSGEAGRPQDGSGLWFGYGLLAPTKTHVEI

According to patent publication US5635509A, “Piperidine derivatives useful as neurokinin antagonists” (Zeneca Limited, priority 1994, dated 1997):

Target: human NK2 receptor (Homo sapiens, UniProt P21452)
Test: Neurokinin A (NKA) Receptor-binding Assay (Test A)
Settings: 3H-NKA binding; human NK2 receptor expressed in Mouse Erythroleukemia (MEL) cells; initial use of assay
Source text: Neurokinin A (NKA) Receptor-binding Assay (Test A)

Q: `CSCC[C@@H]1NC(=O)[C@H](CC(C)C)NC(=O)CNC(=O)[C@H](Cc2ccccc2)NC(=O)[C@H](Cc2c[nH]c3ccccc23)NC(=O)[C@H](CCC(N)=O)NC1=O` was tested. Which pIC50 did it give?
A: 7.52

pIC50: −log10 of the molar value.
